The results in this text go back to ChEMBL document CHEMBL1152029 (1997).

The test system of assay [1] is V79. Kind of assay: The cytotoxicity in vitro against Chinese hamster V-79 cells at concentration of 0.1 mM.
In assay [2] the test system is Mus musculus. Kind of assay: %Survival of compound was measured using CD2F1 male mice in group of ten at 473 mg/kg dose on day 30.
Assay [3] has as its system Mus musculus. Kind of assay: The percent increase in life span was measured using CD2F1 male mice at 473 mg/kg dose.
A short description of assay [4]: Mean survival time of treated group(T) and Mean survival time of control group(C) was measured using CD2F1 male mice at 473 mg/kg dose.
Assay [5] has as its system Mus musculus. Kind of assay: Mean survival time of compound was measured using CD2F1 male mice in group of ten at 473 mg/kg dose on day 30.
Assay [6] deals with V79. Kind of assay: The cytotoxicity in vitro against Chinese hamster V-79 cells at concentration of 0.5 mM.
For assay [7], the system named is V79. Kind of assay: The cytotoxicity in vitro against Chinese hamster V-79 cells at concentration of 1 mM.
Assay [8] concerns V79. Briefly: The in vitro radioprotective effect measured against Chinese hamster V-79 cells at concentration of 0.1 mM.

As a reminder, the ILS is how much longer treated animals lived than controls. High values mean much gain in survival, low ones little gain in survival.

Consider `CNCCCNCCSP(=O)(O)O`, for which the Survival with V79 [1] turned out to be 100%; with Mus musculus [2] it was 80%; in the assay on V79 [6] it was 95%; with V79 [7], 97%. In addition, the ILS in the assay on Mus musculus [3] stood at 81%. Also, the Ratio in assay [4] was 2.6. Besides, the MST with Mus musculus [5] was found to be 27. Further, the DMF with V79 [8] is 2.
